Assay outcomes deposited in PubChem by several laboratories.
UUG fidelity – modulators of yeast start codon fidelity, primary screen, whole organism, S. cerevisiae, single point, plate reader | AID 602363, 2012 | S. cerevisiae UUG-firefly luciferase reporter, luminescence/redox ratio | activity score, % at 18.7 µM | hit rate 0.13% among 350,000;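 active = replicate mean at a twofold rise or more, about +100% in these data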;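 also: firefly luciferase made from a UUG start codon reports start codon fidelity; reporter light over untreated wells divided by growth signal over untreated wells; some hits fall short of that in this replicate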
MC4R barr agon – human MC4R agonism via beta-arrestin; P32245; U2OS MC4R beta-arrestin complementation, luminescence; percent of melanotan II response, DMSO zero; activation, % at 8.9 µM; actives 0.98% (n = 360,000);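 active means activation above a per-plate cutoff, the mean activation of sample wells on that plate plus 3 SD, cut at about 8% in these data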
NALP1 yeast inh – NALP1 inhibition; S. cerevisiae NALP1/ASC/caspase-1 growth, X-gal OD620, 72 h; inhibition, % at 10 µM; actives 0.61% (n = 280,000); AID 2071; in the data active means inhibition mostly above about 24%, no sharp cut-off; inactive means mostly below about 32%
MC4R antag cAMP – human MC4R antagonism in cAMP assay. actives 0.48% (n = 360,000). MC4R-expressing cells, MTII-stimulated cAMP, LANCE TR-FRET. P32245. inhibition, % at 6.5 µM;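 active means inhibition above its plate's cutoff, the mean of tested wells on that plate plus 3 SD, cut at about 29% in these data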;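 further: 0% = Melanotan II alone and 100% = Melanotan II plus saturating MCL0020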
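System: U2OS-MC4R stable cell line; Technique: Eu-cAMP/anti-cAMP TR-FRET, emission 671 nm; Repeats: single well per compound; Also added: Melanotan II; Dosing: one concentration, 6.5 µM nominal; Schedule: 30-min compound, 1-h challenge, 1-h detection, room temperature.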
ALR H2O2 inh – inhibitors of human ALR sulfhydryl oxidase, primary screen, biochemical, H2O2 detection, HRP-luminol luminescence, single point; FAD-linked sulfhydryl oxidase ALR (Homo sapiens), P55789; purified ALR, DTT oxidation; inhibition, % (concentration not given with the values); 3.8% of 290,000 active;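 active = mean and each replicate at 75% or more; inconclusive = only one of the two met; inactive = neither met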;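 also: stock transfer was 7.5 nL into about 7.5 µL; 0% = neutral wells and 100% = wells with inactivated enzyme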
HDAC3 inhib – human HDAC3 inhibition; O15379; recombinant HDAC3, fluorogenic peptide/trypsin coupled, fluorescence; inhibition, % at 8.3 µM; actives 0.15% (n = 320,000); AID 2718; in the data active means inhibition above about 26%, passing the limit was not always enough
* hit, by the source's call; / = no result. In the library only some 4.2% were active in any assay of this set; here they are far more common.

UUG fidelity | MC4R barr agon | NALP1 yeast inh | MC4R antag cAMP | ALR H2O2 inh | HDAC3 inhib | SMILES
/ | -2 | 13 | 3 | 99* | -4 | CS(=O)(=O)N1CCN=C1SCc1ccc([N+](=O)[O-])cc1
9 | / | / | / | / | / | CC(C)NC(=O)Nc1cccc2c1O[C@H](CN(C)S(=O)(=O)c1ccccc1)[C@H](C)CN([C@H](C)CO)C2=O
-96 | 0 | 17 | 1 | 91* | 7 | Cc1ccc(C(=O)O/N=C(\N)c2ccccn2)c(Cl)c1
-90 | -1 | -3 | 5 | 1 | -7 | N/C(=N\OC(=O)c1ccc(Cl)cc1Cl)c1ccccn1
3 | / | / | / | / | / | CNC[C@@H]1OCCCC[C@@H](C)Oc2ccc(NC(=O)Cc3ccccc3)cc2C(=O)N([C@H](C)CO)C[C@H]1C
-7 | -2 | 15 | -5 | 82* | 4 | CC(C)(C)OC(=O)NN=C(c1ccc(O)cc1)c1ccc(O)cc1
17 | / | / | / | / | / | C[C@@H]1CN([C@H](C)CO)C(=O)c2cc(NS(=O)(=O)c3ccc(F)cc3)ccc2O[C@@H](C)CCCCO[C@@H]1CN(C)C(=O)CCCN(C)C
-10 | -1 | 17 | -1 | 99* | / | CC(NC(=O)c1ccccc1)C(=O)N/N=C/c1ccc(O)cc1 (stereo not given)
-3 | -1 | 10 | -6 | 99* | 5 | O=C(N/N=C/c1ccc(O)cc1)c1cc[n+](Cc2ccccc2)cc1
-9 | / | / | / | / | / | C[C@@H]1CCCCO[C@@H](CN(C)Cc2ccncc2)[C@H](C)CN([C@H](C)CO)C(=O)c2cc(NC(=O)Nc3ccc4c(c3)OCO4)ccc2O1
-11 | 0 | -10 | -1 | 89* | -46 | CC(=O)Oc1cc2oc(=O)cc(C)c2cc1OC(C)=O
-15 | 2 | 8 | -1 | 98* | -7 | C=CCN1C(=O)/C(=C\c2ccc(C)cc2)N=C1SCC(=O)NCCC
-11 | 2 | 22 | 1 | 97* | 0 | CCCNC(=O)CSC1=N/C(=C/c2ccc(F)cc2)C(=O)N1CC
-9 | -3 | -11 | -3 | -5 | 0 | CCCCCNC(=O)CSC1=N/C(=C\c2ccc(Cl)c(Cl)c2)C(=O)N1CC
-13 | 0 | -12 | 10 | 5 | 0 | CCOC(=O)C1=C(C)NC(C)=C(C(=O)OCC)C1C(=O)O

As entered above:
`CC(C)(C)OC(=O)NN=C(c1ccc(O)cc1)c1ccc(O)cc1` – HDAC3 inhib = 4
`C[C@@H]1CN([C@H](C)CO)C(=O)c2cc(NS(=O)(=O)c3ccc(F)cc3)ccc2O[C@@H](C)CCCCO[C@@H]1CN(C)C(=O)CCCN(C)C` – UUG fidelity = 17

Complete entries, looked up by structure. Screens in order: UUG fidelity | MC4R barr agon | NALP1 yeast inh | MC4R antag cAMP | ALR H2O2 inh | HDAC3 inhib
Record of N/C(=N\OC(=O)c1ccc(Cl)cc1Cl)c1ccccn1 = -90 | -1 | -3 | 5 | 1 | -7
Record of CCOC(=O)C1=C(C)NC(C)=C(C(=O)OCC)C1C(=O)O = -13 | 0 | -12 | 10 | 5 | 0

Next entries.
UUG fidelity | MC4R barr agon | NALP1 yeast inh | MC4R antag cAMP | ALR H2O2 inh | HDAC3 inhib | SMILES
-4 | 1 | -6 | -2 | 99* | -5 | CCCC1C(C(=O)OCC)=C(C)NC(C)=C1C(=O)OCC
/ | 3 | 0 | 4 | -11 | 1 | Cn1c2ccccc2c2cc([N+](=O)[O-])ccc21
-9 | -4 | 8 | -3 | 99* | -1 | CN1c2ccc([N+](=O)[O-])cc2N(C)C1(C)c1ccccc1 (stereo not given)
-18 | -1 | -17 | 9 | 78* | 9 | CCOC(=O)Cc1cc(=O)c2c(=O)n(-c3ccccc3)[nH]c2[nH]1
-12 | -1 | 1 | 1 | 99* | 1 | O=c1cc(-c2ccccc2)[nH]c2[nH]n(-c3ccccc3)c(=O)c12
-33 | -4 | 22 | 3 | 98* | 1 | CCOc1ccc(C(=O)CSCCC(=O)O)cc1
-16 | / | / | / | / | / | C[C@@H]1CN([C@@H](C)CO)C(=O)c2cccc(NC(=O)Nc3ccc(C(F)(F)F)cc3)c2O[C@@H]1CN(C)S(=O)(=O)c1ccc(Cl)cc1
-10 | 0 | 3 | -3 | 77* | 1 | O=C(Nc1ccc(CN2CCOCC2)cc1)c1ccco1
8 | 4 | 18 | 1 | -16 | 2 | O=C(CSc1ccc(Cl)cc1)Nc1ccc(N2CCN(C(=O)c3ccco3)CC2)cc1
-8 | 1 | 24 | 9 | 100* | -6 | O=C(CSc1ccc(Cl)cc1)Nc1ccc(NC(=O)c2ccco2)cc1
13 | / | / | / | / | / | CCC(=O)N(C)C[C@H]1Oc2cc(C#CCN(C)C)ccc2S(=O)(=O)N([C@@H](C)CO)C[C@H]1C
-3 | / | / | / | / | / | CC(C)CC#Cc1ccc2c(c1)O[C@@H](CN(C)C(=O)Nc1ccccc1)[C@@H](C)CN([C@@H](C)CO)S2(=O)=O
/ | -2 | 30 | -5 | 26 | 6 | CCOC(=O)C1=C(O)/C(=C/c2ccc(OCC(=O)O)c(OCC)c2)SC1=Nc1ccc(OC)cc1
/ | 8.3* | -73 | -7 | -10 | 7 | CCOC(=O)C1=C(O)/C(=C/c2cc(OC)c(OC)c(OC)c2)SC1=Nc1ccc(OC)cc1
